Some of the results follow.
Biological target: Ubiquitin carboxyl-terminal hydrolase 16 (UniProt Q9Y5T5)
Assay: mass-spectrometry hit list; affinity purification or IP with mass spectrometry

By UniProt entry, the sequences of proteins in these tests, tags left out.
UniProt Q9Y5T5, whole entry: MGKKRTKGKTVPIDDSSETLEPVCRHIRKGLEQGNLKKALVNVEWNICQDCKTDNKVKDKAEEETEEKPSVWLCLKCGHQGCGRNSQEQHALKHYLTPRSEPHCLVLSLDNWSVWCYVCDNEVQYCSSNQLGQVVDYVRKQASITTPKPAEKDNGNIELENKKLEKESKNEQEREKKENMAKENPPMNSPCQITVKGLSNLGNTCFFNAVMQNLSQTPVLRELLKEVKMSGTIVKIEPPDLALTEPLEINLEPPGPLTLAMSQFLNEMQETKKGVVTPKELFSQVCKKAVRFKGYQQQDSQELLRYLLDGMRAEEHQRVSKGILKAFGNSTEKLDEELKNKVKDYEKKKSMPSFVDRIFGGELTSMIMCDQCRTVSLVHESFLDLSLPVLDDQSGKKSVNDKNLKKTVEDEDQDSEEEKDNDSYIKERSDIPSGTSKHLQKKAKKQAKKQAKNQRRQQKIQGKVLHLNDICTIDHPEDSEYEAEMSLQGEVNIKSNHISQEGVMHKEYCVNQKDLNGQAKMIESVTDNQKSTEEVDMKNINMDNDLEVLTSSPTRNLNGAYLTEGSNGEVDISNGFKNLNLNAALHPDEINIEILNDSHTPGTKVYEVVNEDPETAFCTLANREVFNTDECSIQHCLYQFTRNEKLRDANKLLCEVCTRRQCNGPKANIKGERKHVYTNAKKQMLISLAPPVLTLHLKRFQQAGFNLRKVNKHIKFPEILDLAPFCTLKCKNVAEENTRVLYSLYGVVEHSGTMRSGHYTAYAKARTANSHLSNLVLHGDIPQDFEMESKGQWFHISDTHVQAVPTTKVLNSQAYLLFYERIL

Question: For “Ubiquitin carboxyl-terminal hydrolase 27, A6NNY8”, which “listed as a hit” value is on record?
Answer: yes

— article PMC10687032
